Measurements reported in publication PMC9323733, “Efficacy of Vafidemstat in Experimental Autoimmune Encephalomyelitis Highlights the KDM1A/RCOR1/HDAC Epigenetic Axis in Multiple Sclerosis” (Pharmaceutics, 2022).

By UniProt entry, the sequences of proteins in these tests, tags left out.
UniProt P21453, whole entry: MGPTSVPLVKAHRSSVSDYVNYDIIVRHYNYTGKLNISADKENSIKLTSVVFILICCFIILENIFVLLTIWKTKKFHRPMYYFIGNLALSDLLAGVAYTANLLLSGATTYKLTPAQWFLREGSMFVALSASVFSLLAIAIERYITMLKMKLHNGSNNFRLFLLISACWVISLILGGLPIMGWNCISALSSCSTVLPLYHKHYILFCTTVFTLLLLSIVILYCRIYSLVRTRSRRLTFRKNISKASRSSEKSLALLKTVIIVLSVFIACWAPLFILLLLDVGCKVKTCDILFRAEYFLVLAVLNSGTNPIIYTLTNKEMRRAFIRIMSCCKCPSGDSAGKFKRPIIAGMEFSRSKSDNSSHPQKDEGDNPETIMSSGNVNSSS

Columns and labels:
[1] = system: spleen cells of EAE mice; assay: EAE, autoreactive response of spleen cells from treated mice (proliferation, cytokines/chemokines); settings: day 26; ORY-2001 0.5 mg/kg, ORY-LSD1 180 µg/kg
[2] = system: spleen and lymph nodes of EAE mice; assay: EAE, cell number in spleen and lymph nodes, flow cytometry of CD4 T cells; settings: day 26; ORY-2001 0.5 mg/kg, ORY-LSD1 180 µg/kg
[3] = system: C57BL/6 mice with chronic EAE; assay: Chronic EAE induced by MOG35–55, clinical score; type: in vivo, mouse
[4] = target: human S1P1 receptor (Homo sapiens, UniProt P21453); assay: CellKey impedance assay in CHO cells, agonistic and antagonistic effect; settings: GPCR based impedance assays
[5] = system: spinal cord of EAE mice; assay: EAE, histopathology of spinal cord (demyelination plaques, infiltration); settings: day 26; lumbar and cervical; ORY-2001 0.5 mg/kg, ORY-LSD1 180 µg/kg
[6] = system: spinal cord of EAE mice; assay: EAE, inflammatory mediators in spinal cord protein extracts (ELISA); settings: day 26; ORY-2001 0.5 mg/kg, ORY-LSD1 180 µg/kg

Structure (SMILES): Fc1ccccc1C1CC1NC1CCNCC1 (stereo not drawn)
- IFNγ, IL-17 and IP-10 levels, MOG35–55-specific recall response [1]: produced equivalent levels of IFNγ, IL-17, and IP-10
- IL-4 production by spleen cells [1]: increased with both treatments
- number of immune cells in spleen and lymph nodes [2]: significant increase in the number of immune cells
- effect on disease severity ([3]; EAE experiment 1 (severe), p.o. ORY-2001 1 mg/kg, ORY-LSD1 180 µg/kg): did not significantly reduce disease severity
- animals with severe manifestations/signs of the disease ([3]; EAE experiment 1 (severe), p.o. ORY-2001 1 mg/kg, ORY-LSD1 180 µg/kg (maximum clinical score ≥ 4.0)): 40%
- mean maximum clinical score ([3]; EAE experiment 1 (severe), p.o. ORY-2001 1 mg/kg, ORY-LSD1 180 µg/kg, days 12-16 and 19-23): 3.0
- mice with no or only mild clinical signs at the end of the study ([3]; EAE experiment 2): 60%
- effect on clinical course / disease severity ([3]; EAE experiment 2 (mild), p.o. ORY-2001 0.05, 0.5, 1 mg/kg, ORY-LSD1 90, 180 µg/kg, rasagiline 3 mg/kg): did not significantly reduce disease severity
- animals with severe signs (maximum clinical score 3.5–6) ([3]; EAE experiment 2, highest dose tested): 10%
- clinical signs at the peak of the disease ([3]; EAE sub-chronic phase, to day 26, p.o. ORY-2001 0.5 mg/kg, ORY-LSD1 180 µg/kg): reduced the clinical signs
- animals with moderate clinical score ([3]; EAE sub-chronic phase, ORY-LSD1 180 µg/kg): 30%
- agonist and antagonist activity at S1P1 receptor [4]: neither ORY-2001 nor ORY-LSD1 (at concentrations well above those needed to fully inhibit KDM1A) showed any activity
- plaques with inflammatory infiltrates and areas of demyelination [5]: remarkable decrease in the number and size of demyelinating plaques
- IFNγ, IL-17 and IP-10 levels in spinal cord [6]: no significant changes
- IL-4 levels in spinal cord [6]: significant increase in the levels of IL-4
